In PMC5884652, “New antimicrobial peptide kills drug-resistant pathogens without detectable resistance” (Oncotarget, 2018):
In brackets after ≈: the same amount, converted by molar mass.

What was measured:
E. coli ATCC 25922 = type: cell-based, Escherichia coli; conditions: pH (I or II) not given; 10 mM sodium phosphate buffer, 10% LB; 37° C, 24 h; mean of 3 experiments
Description: The method for peptide synthesis has been described in detail previously. E. coli ATCC 25922 (LB media), P. aeruginosa ATCC 15692 (NB+0.5% NaCl media), Listeria monocytogenes ATCC 3710 (LB media), Staphylococcus epidermidis ATCC 12228 (LB media), and S. aureus ATCC 29213 (TSB media) were obtained from the American Type Culture Collection (Manassas, VA, USA). Bacillus subtilis KCTC 1998 (LB media), Salmonella typhimurium KCTC 1926 (NB media), and Proteus vulgaris KCTC 2433 (NB media) were obtained from the Korean Collection for Type Cultures (Jeollabuk-do, Korea). E. coli CCARM 1238 was received from the Culture Collection of Antibiotic Resistant Microbes at Seoul Women’s University, Korea. […]
(§1) The antibacterial activities of AMPs (melittin, clavaspirin, and its analogs) and conventional antibiotic drugs (erythromycin, gentamicin, ampicillin, and piperacidin) were determined using microdilution assays. […] At the end of the incubation, the minimum inhibitory concentrations (MICs) of the peptides were determined using a VERSA Max microplate reader (Molecular Devices Co., Sunnyvale, CA, USA) at a wavelength of 600 nm. […] MIC values were calculated as the mean of 3 independent experiments conducted in triplicate.

S. aureus ATCC 29213 = type: cell-based, Staphylococcus aureus; conditions: pH (I or II) not given; 10 mM sodium phosphate buffer, 10% LB; 37° C, 24 h; mean of 3 experiments
Description: The method for peptide synthesis has been described in detail previously. […] Bacillus subtilis KCTC 1998 (LB media), Salmonella typhimurium KCTC 1926 (NB media), and Proteus vulgaris KCTC 2433 (NB media) were obtained from the Korean Collection for Type Cultures (Jeollabuk-do, Korea). E. coli CCARM 1238 was received from the Culture Collection of Antibiotic Resistant Microbes at Seoul Women’s University, Korea. Drug-resistant P. aeruginosa 3543, 3904, 3547, and 4007 and S. aureus 3126, 0027, 5157, 1635, 4761, 5159, 3359, 2122, 1630, 1870, 3511, 5156, and 3518 were resistant strains isolated from patients with otitis media in a Chonnam National University’s hospital.
as §1

Question: Which “MIC, E. coli” value (E. coli ATCC 25922) does the source give for `CC[C@H](C)[C@H](NC(=O)CN)C(=O)NCC(=O)N[C@@H](C)C(=O)N[C@H](C(=O)N[C@@H](CC(C)C)C(=O)N[C@@H](CCCCN)C(=O)N[C@H](C(=O)N[C@@H](CC(C)C)C(=O)N[C@H](C(=O)N[C@H](C(=O)NCC(=O)N[C@@H](CC(C)C)C(=O)N1CCC[C@H]1C(=O)N[C@@H](C)C(=O)N[C@@H](CC(C)C)C(=O)N[C@H](C(=O)N[C@@H](CO)C(=O)N[C@@H](Cc1c[nH]c2ccccc12)C(=O)N[C@H](C(=O)N[C@@H](CCCCN)C(=O)N[C@@H](CCCNC(=N)N)C(=O)N[C@@H](CCCCN)C(=O)N[C@@H](CCCNC(=N)N)C(=O)N[C@@H](CCC(N)=O)C(=O)N[C@@H](CCC(N)=O)C(N)=O)[C@@H](C)CC)[C@@H](C)CC)[C@@H](C)O)[C@@H](C)O)C(C)C)C(C)C` [Melittin] here?
Answer: 2 µM (≈ 5.69 µg/mL)

Question: And the “MIC, S. aureus” value (S. aureus ATCC 29213)?
Answer: 2 µM (≈ 5.69 µg/mL)
